Experiments:
PPARγ = PPARγ (Homo sapiens, UniProt P37231); assay: PolarScreen PPAR Competitor Assay (PPARγ binding, fluorescence polarization)
3NP-intoxicated mice = assay: 3NP murine model of Huntington's disease, behavioral score; assay type: in vivo; conditions: oral and intraperitoneal; I 10 mg/Kg both routes; sodium salt 30 mg/Kg oral, 10 mg/Kg i.p.; tested form: sodium salt
Protocol: Mice were subjected to behavioral tests for determining their neurological status after the treatment with oral cannabigerol quinone acid (I) (10 mg/Kg dissolved in sesame oil) and after intraperitoneal delivery (10 mg/Kg dissolved in ethanol/cremophor/saline). Hind limb clasping, Locomotor activity, and kyphosis were rated from 0 to 2 based on severity: a score of 0 typically indicates normal function and 2 seriously affected.
Mice were subjected to behavioral tests for determining their neurological status after the treatment with oral sodium salt of the cannabigerol quinone acid (30 mg/Kg dissolved saline) and after intraperitoneal delivery (10 mg/Kg dissolved in saline). Hind limb clasping, Locomotor activity, and kyphosis were rated from 0 to 2 based on severity: a score of 0 typically indicates normal function and 2 seriously affected. […]
Lesions of the striatum were induced with 3-NP in adult (16-week-old; 30 g) male C57BL/6 mice (Harlan Ibérica, Barcelona, Spain). […] We evaluated the general locomotor activity, the hindlimb clasping and dystonia, and the truncal dystonia. […]

Amino acid sequences for entries named in this document (tags omitted). Residues count along the entry.
UniProt P37231, 238-505 limits assumed: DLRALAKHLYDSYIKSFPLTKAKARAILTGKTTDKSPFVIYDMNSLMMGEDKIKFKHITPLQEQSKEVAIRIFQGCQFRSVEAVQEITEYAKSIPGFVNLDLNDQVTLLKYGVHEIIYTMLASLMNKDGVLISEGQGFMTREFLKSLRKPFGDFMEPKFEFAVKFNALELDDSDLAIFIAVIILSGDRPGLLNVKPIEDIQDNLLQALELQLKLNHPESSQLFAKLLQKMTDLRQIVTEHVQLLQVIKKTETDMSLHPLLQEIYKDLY

## CCCCCC1=C(C(=O)O)C(=O)C(C/C=C(\C)CCC=C(C)C)=C(O)C1=O [I, cannabigerol quinone acid]
PPARγ; compound concentration 0.01 ∝M, tested form: 2-(dimethylamino)ethanol salt
  Relative affinity for PPARγ, percentage of polarization: 95.7%
PPARγ; compound concentration 0.01 ∝M, tested form: L-arginine salt
  Relative affinity for PPARγ, percentage of polarization: 99.0%
PPARγ; compound concentration 0.01 ∝M, tested form: L-lysine salt
  Relative affinity for PPARγ, percentage of polarization: 95.2%
PPARγ; compound concentration 0.01 ∝M, tested form: benzathine salt
  Relative affinity for PPARγ, percentage of polarization: 81.3%
PPARγ; compound concentration 0.01 ∝M, tested form: calcium salt
  Relative affinity for PPARγ, percentage of polarization: 95.1%
PPARγ; compound concentration 0.01 ∝M, tested form: dicyclohexylamine salt
  Relative affinity for PPARγ, percentage of polarization: 113.2%
PPARγ; compound concentration 0.01 ∝M, tested form: ethylenediamine salt
  Relative affinity for PPARγ, percentage of polarization: 95.0%
PPARγ; compound concentration 0.01 ∝M, tested form: meglumine salt
  Relative affinity for PPARγ, percentage of polarization: 95.4%
PPARγ; compound concentration 0.01 ∝M, tested form: potassium salt
  Relative affinity for PPARγ, percentage of polarization: 99.3%
PPARγ; compound concentration 0.01 ∝M, tested form: sodium salt
  Relative affinity for PPARγ, percentage of polarization: 99.6%
PPARγ; compound concentration 0.01 ∝M, tested form: tromethamine salt
  Relative affinity for PPARγ, percentage of polarization: 95.9%
PPARγ; compound concentration 0.05 ∝M, tested form: 2-(dimethylamino)ethanol salt
  Relative affinity for PPARγ, percentage of polarization: 94.0%
PPARγ; compound concentration 0.05 ∝M, tested form: L-arginine salt
  Relative affinity for PPARγ, percentage of polarization: 95.9%
PPARγ; compound concentration 0.05 ∝M, tested form: L-lysine salt
  Relative affinity for PPARγ, percentage of polarization: 94.3%
PPARγ; compound concentration 0.05 ∝M, tested form: benzathine salt
  Relative affinity for PPARγ, percentage of polarization: 83.4%
PPARγ; compound concentration 0.05 ∝M, tested form: calcium salt
  Relative affinity for PPARγ, percentage of polarization: 91.7%
PPARγ; compound concentration 0.05 ∝M, tested form: dicyclohexylamine salt
  Relative affinity for PPARγ, percentage of polarization: 96.3%
PPARγ; compound concentration 0.05 ∝M, tested form: ethylenediamine salt
  Relative affinity for PPARγ, percentage of polarization: 95.6%
PPARγ; compound concentration 0.05 ∝M, tested form: meglumine salt
  Relative affinity for PPARγ, percentage of polarization: 94.2%
PPARγ; compound concentration 0.05 ∝M, tested form: potassium salt
  Relative affinity for PPARγ, percentage of polarization: 99.1%
PPARγ; compound concentration 0.05 ∝M, tested form: sodium salt
  Relative affinity for PPARγ, percentage of polarization: 101.6%
PPARγ; compound concentration 0.05 ∝M, tested form: tromethamine salt
  Relative affinity for PPARγ, percentage of polarization: 98.8%
PPARγ; compound concentration 0.1 ∝M, tested form: 2-(dimethylamino)ethanol salt
  Relative affinity for PPARγ, percentage of polarization: 93.6%
PPARγ; compound concentration 0.1 ∝M, tested form: L-arginine salt
  Relative affinity for PPARγ, percentage of polarization: 92.8%
PPARγ; compound concentration 0.1 ∝M, tested form: L-lysine salt
  Relative affinity for PPARγ, percentage of polarization: 93.3%
PPARγ; compound concentration 0.1 ∝M, tested form: benzathine salt
  Relative affinity for PPARγ, percentage of polarization: 75.7%
PPARγ; compound concentration 0.1 ∝M, tested form: calcium salt
  Relative affinity for PPARγ, percentage of polarization: 86.0%
PPARγ; compound concentration 0.1 ∝M, tested form: dicyclohexylamine salt
  Relative affinity for PPARγ, percentage of polarization: 87.4%
PPARγ; compound concentration 0.1 ∝M, tested form: ethylenediamine salt
  Relative affinity for PPARγ, percentage of polarization: 98.6%
PPARγ; compound concentration 0.1 ∝M, tested form: meglumine salt
  Relative affinity for PPARγ, percentage of polarization: 94.9%
PPARγ; compound concentration 0.1 ∝M, tested form: potassium salt
  Relative affinity for PPARγ, percentage of polarization: 97.9%
PPARγ; compound concentration 0.1 ∝M, tested form: sodium salt
  Relative affinity for PPARγ, percentage of polarization: 101.6%
PPARγ; compound concentration 0.1 ∝M, tested form: tromethamine salt
  Relative affinity for PPARγ, percentage of polarization: 96.1%
PPARγ; compound concentration 0.5 ∝M, tested form: 2-(dimethylamino)ethanol salt
  Relative affinity for PPARγ, percentage of polarization: 77.4%
PPARγ; compound concentration 0.5 ∝M, tested form: L-arginine salt
  Relative affinity for PPARγ, percentage of polarization: 68.3%
PPARγ; compound concentration 0.5 ∝M, tested form: L-lysine salt
  Relative affinity for PPARγ, percentage of polarization: 94.7%
PPARγ; compound concentration 0.5 ∝M, tested form: benzathine salt
  Relative affinity for PPARγ, percentage of polarization: 38.9%
PPARγ; compound concentration 0.5 ∝M, tested form: calcium salt
  Relative affinity for PPARγ, percentage of polarization: 60.2%
PPARγ; compound concentration 0.5 ∝M, tested form: dicyclohexylamine salt
  Relative affinity for PPARγ, percentage of polarization: 54.0%
PPARγ; compound concentration 0.5 ∝M, tested form: ethylenediamine salt
  Relative affinity for PPARγ, percentage of polarization: 91.7%
PPARγ; compound concentration 0.5 ∝M, tested form: meglumine salt
  Relative affinity for PPARγ, percentage of polarization: 88.3%
PPARγ; compound concentration 0.5 ∝M, tested form: potassium salt
  Relative affinity for PPARγ, percentage of polarization: 90.9%
PPARγ; compound concentration 0.5 ∝M, tested form: sodium salt
  Relative affinity for PPARγ, percentage of polarization: 90.9%
PPARγ; compound concentration 0.5 ∝M, tested form: tromethamine salt
  Relative affinity for PPARγ, percentage of polarization: 80.5%
PPARγ; compound concentration 1 ∝M, tested form: 2-(dimethylamino)ethanol salt
  Relative affinity for PPARγ, percentage of polarization: 57.9%
PPARγ; compound concentration 1 ∝M, tested form: L-arginine salt
  Relative affinity for PPARγ, percentage of polarization: 44.3%
PPARγ; compound concentration 1 ∝M, tested form: L-lysine salt
  Relative affinity for PPARγ, percentage of polarization: 92.3%
PPARγ; compound concentration 1 ∝M, tested form: benzathine salt
  Relative affinity for PPARγ, percentage of polarization: 45.6%
PPARγ; compound concentration 1 ∝M, tested form: calcium salt
  Relative affinity for PPARγ, percentage of polarization: 41.4%
PPARγ; compound concentration 1 ∝M, tested form: dicyclohexylamine salt
  Relative affinity for PPARγ, percentage of polarization: 54.2%
PPARγ; compound concentration 1 ∝M, tested form: ethylenediamine salt
  Relative affinity for PPARγ, percentage of polarization: 68.4%
PPARγ; compound concentration 1 ∝M, tested form: meglumine salt
  Relative affinity for PPARγ, percentage of polarization: 73.1%
PPARγ; compound concentration 1 ∝M, tested form: potassium salt
  Relative affinity for PPARγ, percentage of polarization: 74.3%
PPARγ; compound concentration 1 ∝M, tested form: sodium salt
  Relative affinity for PPARγ, percentage of polarization: 76.7%
PPARγ; compound concentration 1 ∝M, tested form: tromethamine salt
  Relative affinity for PPARγ, percentage of polarization: 73.0%
PPARγ; compound concentration 5 ∝M, tested form: 2-(dimethylamino)ethanol salt
  Relative affinity for PPARγ, percentage of polarization: 19.3%
PPARγ; compound concentration 5 ∝M, tested form: L-arginine salt
  Relative affinity for PPARγ, percentage of polarization: 16.3%
PPARγ; compound concentration 5 ∝M, tested form: L-lysine salt
  Relative affinity for PPARγ, percentage of polarization: 76.5%
PPARγ; compound concentration 5 ∝M, tested form: benzathine salt
  Relative affinity for PPARγ, percentage of polarization: 24.9%
PPARγ; compound concentration 5 ∝M, tested form: dicyclohexylamine salt
  Relative affinity for PPARγ, percentage of polarization: 19.3%
PPARγ; compound concentration 5 ∝M, tested form: ethylenediamine salt
  Relative affinity for PPARγ, percentage of polarization: 33.2%
PPARγ; compound concentration 5 ∝M, tested form: meglumine salt
  Relative affinity for PPARγ, percentage of polarization: 37.2%
PPARγ; compound concentration 5 ∝M, tested form: potassium salt
  Relative affinity for PPARγ, percentage of polarization: 33.1%
PPARγ; compound concentration 5 ∝M, tested form: sodium salt
  Relative affinity for PPARγ, percentage of polarization: 37.5%
PPARγ; compound concentration 5 ∝M, tested form: tromethamine salt
  Relative affinity for PPARγ, percentage of polarization: 34.9%
PPARγ; compound concentration 10 ∝M, tested form: 2-(dimethylamino)ethanol salt
  Relative affinity for PPARγ, percentage of polarization: 15.9%
PPARγ; compound concentration 10 ∝M, tested form: L-arginine salt
  Relative affinity for PPARγ, percentage of polarization: 14.1%
PPARγ; compound concentration 10 ∝M, tested form: L-lysine salt
  Relative affinity for PPARγ, percentage of polarization: 6.9%
PPARγ; compound concentration 10 ∝M, tested form: benzathine salt
  Relative affinity for PPARγ, percentage of polarization: 22.9%
PPARγ; compound concentration 10 ∝M, tested form: calcium salt
  Relative affinity for PPARγ, percentage of polarization: 22.5%
PPARγ; compound concentration 10 ∝M, tested form: dicyclohexylamine salt
  Relative affinity for PPARγ, percentage of polarization: 20.9%
PPARγ; compound concentration 10 ∝M, tested form: meglumine salt
  Relative affinity for PPARγ, percentage of polarization: 20.6%
PPARγ; compound concentration 10 ∝M, tested form: potassium salt
  Relative affinity for PPARγ, percentage of polarization: 19.0%
PPARγ; compound concentration 10 ∝M, tested form: sodium salt
  Relative affinity for PPARγ, percentage of polarization: 21.7%
PPARγ; compound concentration 10 ∝M, tested form: tromethamine salt
  Relative affinity for PPARγ, percentage of polarization: 23.2%
PPARγ; compound concentration 25 ∝M, tested form: 2-(dimethylamino)ethanol salt
  Relative affinity for PPARγ, percentage of polarization: 17.2%
PPARγ; compound concentration 25 ∝M, tested form: L-arginine salt
  Relative affinity for PPARγ, percentage of polarization: 17.8%
PPARγ; compound concentration 25 ∝M, tested form: L-lysine salt
  Relative affinity for PPARγ, percentage of polarization: 27.4%
PPARγ; compound concentration 25 ∝M, tested form: benzathine salt
  Relative affinity for PPARγ, percentage of polarization: 22.9%
PPARγ; compound concentration 25 ∝M, tested form: calcium salt
  Relative affinity for PPARγ, percentage of polarization: 24.9%
PPARγ; compound concentration 25 ∝M, tested form: dicyclohexylamine salt
  Relative affinity for PPARγ, percentage of polarization: 29.0%
PPARγ; compound concentration 25 ∝M, tested form: ethylenediamine salt
  Relative affinity for PPARγ, percentage of polarization: 16.1%
PPARγ; compound concentration 25 ∝M, tested form: meglumine salt
  Relative affinity for PPARγ, percentage of polarization: 15.3%
PPARγ; compound concentration 25 ∝M, tested form: potassium salt
  Relative affinity for PPARγ, percentage of polarization: 16.7%
PPARγ; compound concentration 25 ∝M, tested form: sodium salt
  Relative affinity for PPARγ, percentage of polarization: 17.2%
PPARγ; compound concentration 25 ∝M, tested form: tromethamine salt
  Relative affinity for PPARγ, percentage of polarization: 26.1%
PPARγ; compound concentration 50 ∝M, tested form: 2-(dimethylamino)ethanol salt
  Relative affinity for PPARγ, percentage of polarization: 23.6%
PPARγ; compound concentration 50 ∝M, tested form: L-arginine salt
  Relative affinity for PPARγ, percentage of polarization: 22.1%
PPARγ; compound concentration 50 ∝M, tested form: L-lysine salt
  Relative affinity for PPARγ, percentage of polarization: 15.8%
PPARγ; compound concentration 50 ∝M, tested form: benzathine salt
  Relative affinity for PPARγ, percentage of polarization: 27.0%
PPARγ; compound concentration 50 ∝M, tested form: calcium salt
  Relative affinity for PPARγ, percentage of polarization: 45.4%
PPARγ; compound concentration 50 ∝M, tested form: dicyclohexylamine salt
  Relative affinity for PPARγ, percentage of polarization: 104.9%
PPARγ; compound concentration 50 ∝M, tested form: ethylenediamine salt
  Relative affinity for PPARγ, percentage of polarization: 16.1%
PPARγ; compound concentration 50 ∝M, tested form: meglumine salt
  Relative affinity for PPARγ, percentage of polarization: 13.7%
PPARγ; compound concentration 50 ∝M, tested form: potassium salt
  Relative affinity for PPARγ, percentage of polarization: 19.0%
PPARγ; compound concentration 50 ∝M, tested form: sodium salt
  Relative affinity for PPARγ, percentage of polarization: 19.1%
PPARγ; compound concentration 50 ∝M, tested form: tromethamine salt
  Relative affinity for PPARγ, percentage of polarization: 30.9%
3NP-intoxicated mice
  clinical symptoms induced by 3-NP intoxication (behavioral score: hind limb clasping, locomotor activity, kyphosis): clearly alleviates the clinical symptoms

From US20220041538A1, “CA[…] ACID AND SALTS THEREOF” (EMERALD HEALTH PHARMACEUTICALS INC, priority 2018, published 2022)
